Results reported in patent US9216988B2, “Benzyl sulfonamide derivatives as RORc modulators” (Genentech, Inc., priority 2011, dated 2015).

By UniProt entry, the sequences of proteins in these tests, tags left out. Residues count along the entry.
UniProt P51449, 269-508: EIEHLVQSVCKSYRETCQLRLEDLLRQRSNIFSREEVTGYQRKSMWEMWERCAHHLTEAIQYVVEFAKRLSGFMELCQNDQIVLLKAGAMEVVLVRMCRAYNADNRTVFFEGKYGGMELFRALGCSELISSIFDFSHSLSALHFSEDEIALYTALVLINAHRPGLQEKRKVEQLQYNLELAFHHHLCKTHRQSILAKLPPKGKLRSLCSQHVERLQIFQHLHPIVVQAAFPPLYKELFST

biological target: RORc ligand binding domain (Homo sapiens (Human), UniProt P51449); conditions: read-out: RORc IC50; two values in a cell = separated enantiomers, stereochemical identity not determined

SMILES | IC50
CC(=O)N1CCN(c2ccc(CN(C3CCC3)S(=O)(=O)c3ccc(C(F)(F)F)cc3)c(F)c2)CC1 [Compound 117, N-[4-(4-Acetyl-piperazin-1-yl)-2-fluoro-benzyl]-N-cyclobutyl-4-trifluoromethyl-benzenesulfonamide] | 50 nM
CC(=O)N1CCN(c2ccc(CN(C3CCC3)S(=O)(=O)c3ccccc3Cl)c(F)c2)CC1 [Compound 34, N-[4-(4-Acetyl-piperazin-1-yl)-2-fluoro-benzyl]-2-chloro-N-cyclobutyl-benzenesulfonamide] | 55 nM
CC(=O)N1CCN(c2ccc(CN(C3CCC3)S(=O)(=O)CCc3ccc(F)cc3)c(F)c2)CC1 [Compound 131, 2-(4-Fluoro-phenyl)-ethanesulfonic acid [4-(4-acetyl-piperazin-1-yl)-2-fluoro-benzyl]-cyclobutyl-amide] | 175 nM
CS(=O)(=O)N1CCN(c2ccc(CN(CC(F)(F)F)S(=O)(=O)Cc3ccccc3)c(F)c2)CC1 [Compound 75, N-[2-Fluoro-4-(4-methanesulfonyl-piperazin-1-yl)-benzyl]-C-phenyl-N-(2,2,2-trifluoro-ethyl)-methanesulfonamide] | 56 nM
CC(C)CN(Cc1ccc(N[C@H]2CC[C@@H](C#N)CC2)cc1)S(=O)(=O)Cc1ccccc1 [Compound 194, N-(4-(((1S,4S)-4-cyanocyclohexyl)amino)benzyl)-N-isobutyl-1-phenylmethanesulfonamide] | 54 nM
CC(C)CN(Cc1ccc(N2CC(C(=O)N(C)C)C2)cc1)S(=O)(=O)Cc1ccccc1 [Compound 111, 1-{4-[(Isobutyl-phenylmethanesulfonyl-amino)-methyl]-phenyl}-azetidine-3-carboxylic acid dimethylamide] | 162 nM
CC(=O)N1CCN(c2ccc(CN(C3CCC3)S(=O)(=O)c3cccc(OC(F)F)c3)c(F)c2)CC1 [Compound 123, N-[4-(4-Acetyl-piperazin-1-yl)-2-fluoro-benzyl]-N-cyclobutyl-3-difluoromethoxy-benzenesulfonamide] | 77 nM
CS(=O)(=O)N1CCC(c2ccc(CN(CC(F)(F)F)S(=O)(=O)Cc3ccccc3)c(F)c2)CC1 [Compound 61, N-[2-Fluoro-4-(1-methanesulfonyl-piperidin-4-yl)-benzyl]-C-phenyl-N-(2,2,2-trifluoro-ethyl)-methanesulfonamide] | 65 nM
CC(C)CN(Cc1ccc(N2CCC(N(C)C)CC2)cc1)S(=O)(=O)Cc1ccccc1 [Compound 23, N-[4-(4-Dimethylamino-piperidin-1-yl)-benzyl]-N-isobutyl-C-phenyl-methanesulfonamide] | 3000 nM
CC(=O)N1CCN(c2ccc(CN(C3CCC3)S(=O)(=O)c3ccccc3C(F)(F)F)c(F)c2)CC1 [Compound 47, N-[4-(4-Acetyl-piperazin-1-yl)-2-fluoro-benzyl]-N-cyclobutyl-2-trifluoromethyl-benzenesulfonamide] | 157 nM
CC(C)CN(Cc1ccc(N2CCC3(CCOC3)C2)cc1)S(=O)(=O)Cc1ccccc1 (centres unmarked) [Compound 184, N-(4-(2-oxa-7-azaspiro[4.4]nonan-7-yl)benzyl)-N-isobutyl-1-phenylmethanesulfonamide] | 56 nM
CC(C)CN(Cc1ccc(O[C@H]2C[C@H]3CC[C@@H](C2)N3S(C)(=O)=O)cc1)S(=O)(=O)Cc1ccccc1 [Compound 174, N-isobutyl-N-(4-(((1R,3R,5S)-8-(methylsulfonyl)-8-azabicyclo[3.2.1]octan-3-yl)oxy)benzyl)-1-phenylmethanesulfonamide] | 4 nM
CC(C)CN(Cc1ccc(O[C@@H]2CCN(S(C)(=O)=O)C2)cc1)S(=O)(=O)Cc1ccccc1 [Compound 175, (R)-N-isobutyl-N-(4-((1-(methylsulfonyl)pyrrolidin-3-yl)oxy)benzyl)-1-phenylmethanesulfonamide] | 60 nM
CCN1CC[C@H](Nc2ccc(CN(CC(C)C)S(=O)(=O)Cc3ccccc3)cc2)C(F)(F)C1 [Compound 206, (S)-N-(4-((1-ethyl-3,3-difluoropiperidin-4-yl)amino)benzyl)-N-isobutyl-1-phenylmethanesulfonamide] | 520 nM
CC(=O)N1CCN(c2ccc(CN(CC(C)C)S(=O)(=O)Cc3ccccc3)cn2)CC1 [Compound 141, N-((6-(4-acetylpiperazin-1-yl)pyridin-3-yl)methyl)-N-isobutyl-1-phenylmethanesulfonamide] | 440 nM
CC(C)CN(Cc1ccc(N2CC(C3CCOCC3)C2)cc1)S(=O)(=O)Cc1ccccc1 [Compound 197, N-isobutyl-1-phenyl-N-(4-(3-(tetrahydro-2H-pyran-4-yl)azetidin-1-yl)benzyl)methanesulfonamide] | 69 nM
CC(C)CN(Cc1ccc(N2CC3(CCOCC3)C2)cc1)S(=O)(=O)Cc1ccccc1 [Compound 188, N-(4-(7-oxa-2-azaspiro[3.5]nonan-2-yl)benzyl)-N-isobutyl-1-phenylmethanesulfonamide] | 67 nM
CC(C)CN(Cc1ccc(NC2CCN(C(=O)N(C)C)CC2)cc1)S(=O)(=O)Cc1ccccc1 [Compound 177, 4-((4-((N-isobutyl-1-phenylmethylsulfonamido)methyl)phenyl)amino)-N,N-dimethylpiperidine-1-carboxamide] | 1000 nM
CN(C)S(=O)(=O)N1CCC(c2ccc(CN(CC(F)(F)F)S(=O)(=O)Cc3ccccc3)c(F)c2)CC1 [Compound 60, 4-(3-Fluoro-4-{[phenylmethanesulfonyl-(2,2,2-trifluoro-ethyl)-amino]-methyl}-phenyl)-piperidine-1-sulfonic acid dimethylamide] | 100 nM
CC(C)CN(Cc1ccc(N2CCN(S(=O)(=O)N(C)C)CC2)cc1)S(=O)(=O)Cc1ccccc1 [Compound 40, 4-{4-[(Isobutyl-phenylmethanesulfonyl-amino)-methyl]-phenyl}-piperazine-1-sulfonic acid dimethylamide] | 120 nM
CC(=O)N1CCN(c2ccc(CN(C3CCC3)S(=O)(=O)CCc3ccccc3)c(F)c2)CC1 [Compound 44, 2-Phenyl-ethanesulfonic acid [4-(4-acetyl-piperazin-1-yl)-2-fluoro-benzyl]-cyclobutyl-amide] | 106 nM
CC(=O)N1CCN(c2ccc(CN(C3CCC3)S(=O)(=O)CCc3cccc(F)c3)c(F)c2)CC1 [Compound 132, 2-(3-Fluoro-phenyl)-ethanesulfonic acid [4-(4-acetyl-piperazin-1-yl)-2-fluoro-benzyl]-cyclobutyl-amide] | 178 nM

More lines, now with the values ahead:

IC50 | SMILES
36 nM | COc1cccc(S(=O)(=O)N(Cc2ccc(N3CCN(C(C)=O)CC3)cc2F)C2CCC2)c1 [Compound 29, N-[4-(4-Acetyl-piperazin-1-yl)-2-fluoro-benzyl]-N-cyclobutyl-3-methoxy-benzenesulfonamide]
6 nM | CC(=O)N1CCN(c2ccc(CN(C3CCC3)S(=O)(=O)c3cc(Cl)cc(Cl)c3)c(F)c2)CC1 [Compound 97, N-[4-(4-Acetyl-piperazin-1-yl)-2-fluoro-benzyl]-3,5-dichloro-N-cyclobutyl-benzenesulfonamide]
19 nM | CC(=O)N1CCN(c2ccc(CN(C3CCC3)S(=O)(=O)Cc3cccc(Cl)c3)c(F)c2)CC1 [Compound 89, N-[4-(4-Acetyl-piperazin-1-yl)-2-fluoro-benzyl]-C-(3-chloro-phenyl)-N-cyclobutyl-methanesulfonamide]
47 nM | CC(C)CN(Cc1ccc(N2CCC3(CC2)COC3)cc1)S(=O)(=O)Cc1ccccc1 [Compound 183, N-(4-(2-oxa-7-azaspiro[3.5]nonan-7-yl)benzyl)-N-isobutyl-1-phenylmethanesulfonamide]
44 nM | CC(=O)N1CCC(c2ccc(CN(CC(F)(F)F)S(=O)(=O)Cc3ccccc3)c(F)c2)CC1 [Compound 62, N-[4-(1-Acetyl-piperidin-4-yl)-2-fluoro-benzyl]-C-phenyl-N-(2,2,2-trifluoro-ethyl)-methanesulfonamide]
10 nM | CC(C)CN(Cc1ccc(N[C@@H]2CCN(S(C)(=O)=O)C[C@H]2F)cc1)S(=O)(=O)Cc1ccccc1 [Compound 200, N-(4-(((3R,4R)-3-fluoro-1-(methylsulfonyl)piperidin-4-yl)amino)benzyl)-N-isobutyl-1-phenylmethanesulfonamide]
35 nM | CC(=O)N1CCN(c2ccc(CN(C3CCC3)S(=O)(=O)c3ccc(C(C)C)cc3)c(F)c2)CC1 [Compound 28, N-[4-(4-Acetyl-piperazin-1-yl)-2-fluoro-benzyl]-N-cyclobutyl-4-isopropyl-benzenesulfonamide]
6 nM | CC(C)CN(Cc1ccc(OC2CCN(S(C)(=O)=O)CC2)cc1)S(=O)(=O)Cc1ccccc1 [Compound 159, N-isobutyl-N-(4-((1-(methylsulfonyl)piperidin-4-yl)oxy)benzyl)-1-phenylmethanesulfonamide]
13 nM | CC(=O)N1CCN(c2ccc(CN(C3CCC3)S(=O)(=O)Cc3cc(F)ccc3F)c(F)c2)CC1 [Compound 87, N-[4-(4-Acetyl-piperazin-1-yl)-2-fluoro-benzyl]-N-cyclobutyl-C-(2,5-difluoro-phenyl)-methanesulfonamide]
29 nM | CC(=O)N1CCN(c2ccc(CN(C3CCC3)S(=O)(=O)Cc3cc(Cl)cc(Cl)c3)c(F)c2)CC1 [Compound 80, N-[4-(4-Acetyl-piperazin-1-yl)-2-fluoro-benzyl]-N-cyclobutyl-C-(3,5-dichloro-phenyl)-methanesulfonamide]
7 nM | CC(=O)N1CCN(c2ccc(CN(CC(C)C)S(=O)(=O)Cc3ccccc3)c(F)c2)CC1 [Compound 73, N-[4-(4-Acetyl-piperazin-1-yl)-2-fluoro-benzyl]-N-isobutyl-C-phenyl-methanesulfonamide]
17 nM | CC(=O)N1CCN(c2ccc(CN(C3CCC3)S(=O)(=O)Cc3ccc(F)cc3)c(F)c2)CC1 [Compound 91, N-[4-(4-Acetyl-piperazin-1-yl)-2-fluoro-benzyl]-N-cyclobutyl-C-(4-fluoro-phenyl)-methanesulfonamide]
10 nM | CC(=O)N1CCN(c2ccc(CN(CC(F)(F)F)S(=O)(=O)C(C)c3ccccc3)c(F)c2)CC1 (centres unmarked) [Compound 15, 1-Phenyl-ethanesulfonic acid [4-(4-acetyl-piperazin-1-yl)-2-fluoro-benzyl]-(2,2,2-trifluoro-ethyl)-amide]
